Values of other authors in US20220117948A1, “TRITERPENOID ANTIFUNGALS FOR THE TREATMENT OF FUNGAL OSTEO-ARTICULAR INFECTIONS” (Scynexis, Inc., priority 2019, published 2022).
Like-named read-outs stand apart in the source and are kept apart here.

Tests used:
[1] = rabbits; cited from earlier work
[2] = humans; cited from earlier work

In the case of 18F-fluconazole, the “concentration in bone as % of the plasma concentration” value [1] is given as ~100% and the “concentration in bone as % of the plasma concentration” value [2] is given as “approximately 33%”.
